Tested on: spontaneous hypertensive rats of the Milan (MHS)
Experiment: antihypertensive activity in spontaneous hypertensive rats (MHS), indirect tail-cuff method
Type: in vivo, rat
Conditions: 10 mg/Kg/os daily for ten days in Methocel 0.5% w/v; 7 rats; controls 172 +/- 2.0

## C[C@]12CC[C@H](O)C[C@H]1CC[C@@H]1[C@@H]2CC[C@]2(C)[C@@](O)(C3=CC(=O)OC3)CC[C@]12O [Ref. Comp., 3β,14β,17α-trihydroxy-5β-card-20(22)-enolide, reference compound]
  SBP (SYSTOLIC BLOOD PRESSURE FALL IN SPONTANEOUS HYPERTENSIVE RATS (MHS)): 171 +/- 1.9 mm Hg

Reference: US5591734A, “17-(3-furyl)-5β, 14β-androstane derivatives active on the cardiovascular system, processes for their preparation and pharmaceutical compositions containing same” (Sigma-Tau Industrie Farmaceutiche Riunite S.p.A., priority 1992, dated 1997)
